The values that follow come from ChEMBL document CHEMBL3714709, “T1R hetero-oligomeric taste receptors, cell lines that express said receptors, and taste compounds” (2008).

Sequences of proteins named here, by UniProt entry; tags and fusion partners are left off. A change or cut given only in a name is not applied to a line headed by its entry.
UniProt Q7RTX0: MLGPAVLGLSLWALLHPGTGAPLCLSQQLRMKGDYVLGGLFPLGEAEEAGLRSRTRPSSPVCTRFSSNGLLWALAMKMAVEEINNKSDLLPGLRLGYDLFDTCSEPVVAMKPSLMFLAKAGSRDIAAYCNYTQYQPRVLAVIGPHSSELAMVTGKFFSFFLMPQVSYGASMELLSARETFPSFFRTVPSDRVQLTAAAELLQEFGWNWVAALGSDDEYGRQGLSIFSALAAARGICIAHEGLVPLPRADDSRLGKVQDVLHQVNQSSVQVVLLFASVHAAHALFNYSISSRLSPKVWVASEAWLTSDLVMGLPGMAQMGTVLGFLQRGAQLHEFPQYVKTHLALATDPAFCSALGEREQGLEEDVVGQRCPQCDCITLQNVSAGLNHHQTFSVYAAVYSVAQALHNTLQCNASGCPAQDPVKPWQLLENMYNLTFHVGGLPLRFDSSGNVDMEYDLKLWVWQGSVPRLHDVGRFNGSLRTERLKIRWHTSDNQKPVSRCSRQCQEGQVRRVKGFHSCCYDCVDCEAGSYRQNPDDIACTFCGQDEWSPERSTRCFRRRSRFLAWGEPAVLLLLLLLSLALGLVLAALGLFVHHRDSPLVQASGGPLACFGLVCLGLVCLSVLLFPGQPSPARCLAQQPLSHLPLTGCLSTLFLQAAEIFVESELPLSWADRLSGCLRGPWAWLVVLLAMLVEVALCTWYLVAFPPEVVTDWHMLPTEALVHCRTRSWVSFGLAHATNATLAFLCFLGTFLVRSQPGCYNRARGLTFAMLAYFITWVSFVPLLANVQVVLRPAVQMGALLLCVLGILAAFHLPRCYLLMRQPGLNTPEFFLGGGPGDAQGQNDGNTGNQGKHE
UniProt Q7RTX1: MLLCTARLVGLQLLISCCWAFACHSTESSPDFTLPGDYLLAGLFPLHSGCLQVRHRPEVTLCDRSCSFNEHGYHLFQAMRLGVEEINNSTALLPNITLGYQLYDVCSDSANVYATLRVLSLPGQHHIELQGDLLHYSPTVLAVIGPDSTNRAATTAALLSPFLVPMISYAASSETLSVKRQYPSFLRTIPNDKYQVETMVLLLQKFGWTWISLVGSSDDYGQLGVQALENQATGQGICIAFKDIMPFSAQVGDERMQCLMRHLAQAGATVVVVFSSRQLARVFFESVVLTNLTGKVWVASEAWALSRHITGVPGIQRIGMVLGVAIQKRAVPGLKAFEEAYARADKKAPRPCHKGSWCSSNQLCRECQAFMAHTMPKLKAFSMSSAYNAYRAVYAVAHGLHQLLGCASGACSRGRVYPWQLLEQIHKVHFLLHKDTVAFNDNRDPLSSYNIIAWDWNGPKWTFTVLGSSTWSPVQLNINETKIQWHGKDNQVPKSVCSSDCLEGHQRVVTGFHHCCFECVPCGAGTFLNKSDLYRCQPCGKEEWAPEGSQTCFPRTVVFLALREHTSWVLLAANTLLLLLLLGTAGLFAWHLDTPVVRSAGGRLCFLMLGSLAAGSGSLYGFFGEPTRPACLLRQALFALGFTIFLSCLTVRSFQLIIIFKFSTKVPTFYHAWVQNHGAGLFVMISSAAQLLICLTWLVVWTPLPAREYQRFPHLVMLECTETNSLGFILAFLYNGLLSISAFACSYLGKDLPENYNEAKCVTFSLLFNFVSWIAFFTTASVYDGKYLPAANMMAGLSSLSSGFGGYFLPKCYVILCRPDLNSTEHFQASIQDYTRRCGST

The target in test [1] is T1, T1R1/T1R3 (Homo sapiens) (UniProt Q7RTX0+Q7RTX1). Put plainly: Activity at human T1R1/T1R3 expressed in HEK293T cells co-expressing Galpha15 assessed as induction of left-ward shift of glutamate dose response curve at 5 mM relative to untreated control. Format: cell-based. Conditions: HEK-293T.
The target in test [2] is T1, T1R1/T1R3 (Homo sapiens). In words: Activity at human T1R1/T1R3 expressed in HEK293T cells co-expressing Galpha15 assessed as induction of left-ward shift of glutamate/IMP dose response curve at 5 mM relative to untreated control. Type of test: cell-based. Conditions: HEK-293T.

Calls of active or inactive are those of the source. The calls are words filed in the database; no cut-off is given here.

As to `C=C1C[C@@]23CC[C@H]4[C@@](C)(CCC[C@@]4(C)C(=O)O[C@@H]4O[C@H](CO)[C@@H](O)[C@H](O)[C@H]4O)[C@@H]2CC[C@]1(O[C@@H]1O[C@H](CO)[C@@H](O)[C@H](O)[C@H]1O[C@@H]1O[C@H](CO)[C@@H](O)[C@H](O)[C@H]1O)C3`, the result on T1R1/T1R3 (Homo sapiens) [1] and at T1R1/T1R3 (Homo sapiens) [2] was inactive.
